Broadly, the inhibition is the relative decrease from the control value, in per cent.

Sequences of proteins named here, by UniProt entry; tags and fusion partners are left off. A change or cut given only in a name is not applied to a line headed by its entry.
UniProt P41145: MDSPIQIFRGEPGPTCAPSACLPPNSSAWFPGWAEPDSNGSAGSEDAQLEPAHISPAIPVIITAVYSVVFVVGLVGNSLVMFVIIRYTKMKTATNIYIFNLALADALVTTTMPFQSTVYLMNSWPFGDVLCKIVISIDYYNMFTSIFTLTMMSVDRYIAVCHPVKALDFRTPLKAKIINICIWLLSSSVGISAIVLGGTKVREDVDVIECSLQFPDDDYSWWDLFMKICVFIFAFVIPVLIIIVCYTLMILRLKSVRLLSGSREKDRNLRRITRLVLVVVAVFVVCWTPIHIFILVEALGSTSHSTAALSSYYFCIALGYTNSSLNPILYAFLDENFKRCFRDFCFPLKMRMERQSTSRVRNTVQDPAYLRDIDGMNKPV

This is one part of the list. Results with a measured potency or affinity are listed apart. Active and inactive are the calls of the source. Cut-off read from the data, not from the text of the source: active = inhibition above about 50%; inactive = the rest.

The assay addresses Kappa-type opioid receptor (Homo sapiens) (UniProt P41145). The assay is described as follows: KOR antagonists, beta-arrestin recruitment, cell-based, luminescence, uHTS (AID 1778). Particulars: antagonist mode, at 10 µM, hits give high values.
For the compound `COc1ccc(S(=O)(=O)N2CCn3c2nc2ccccc23)cc1`, the inhibition was inactive: 15.2%.
Under `Cc1ccc(N(CC(=O)N2CCn3c2nc2ccccc23)S(=O)(=O)c2c(C)n[nH]c2C)cc1` stands inactive: 4.1%.
In the case of `CC(C)C[C@H](NC(=O)N1CCn2c1nc1ccccc12)C(=O)NCCc1ccccc1` it was inactive: -41.8%; in that of `Cc1cc(C)cc(N(CC(=O)N2CCn3c2nc2ccccc23)S(=O)(=O)c2c(C)noc2C)c1`, inactive: -13%.
In the case of `Cc1ccc2c(c1)C1CN(C)CCC1N2C(=O)c1cccs1` (centres undefined) it was inactive: 21.2%; in that of `Cc1ccc2c(c1)C1CN(C)CCC1N2C(=O)COc1ccc(N(C)C(=O)C(C)(C)C)cc1` (centres undefined), inactive: 4.2%.
With `Nc1ncnc2c1ncn2CCN1CCOCC1`, the inhibition was inactive: 15.3%.
In the case of `CC(C)[C@H](NC(=O)N1CCn2c1nc1ccccc12)C(=O)NC1CCCCC1` it was inactive: -51.8%; in that of `CCN(CC)CCNC(=S)N1CCn2c(nc3ccccc32)C1`, inactive: 28.6%; in that of `CC1c2nc3ccccc3n2C(CC(=O)NCc2ccccn2)C(=O)N1Cc1ccccc1` (centres undefined), inactive: 16.3%.
Under `CC(=O)Nc1ccc(C(=O)CSc2nc3ccccc3n2CC(=O)N2CCCC2)cc1` stands inactive: -11%.
In the case of `CC(C)[C@H](NC(=O)N1CCn2c1nc1ccccc12)C(=O)N1CCCCC1`, the inhibition was inactive: -21.7%.
In the case of `CCCNC(=O)CC1C(=O)N(Cc2ccccc2)C(C)c2nc3ccccc3n21` (centres undefined) it was inactive: -8%.
Under `COc1ccc(/C=N/c2nc3ccccc3n2CCN2CCCCC2)cc1OC` stands inactive: -30.9%; under `CC(=O)Nc1ccc(NC(=O)Cn2c(CC(=O)N3CCCC3)nc3ccccc32)cc1`, inactive: 10%.
In the case of `Cc1cc(SC(NC(=O)c2ccccc2)C(Cl)(Cl)Cl)nc(C(C)C)n1` (centres undefined) it was inactive: -6.2%; in that of `COc1ccc(OCC(=O)N2c3ccc(C)cc3C3CN(C)CCC32)cc1` (centres undefined), inactive: -30.7%.
Take `O=C(CCCCCNC(=O)N1CCn2c1nc1ccccc12)NCCc1ccccc1`: the inhibition is inactive: -37.9%.
Under `Cc1ccc2c(c1)[C@@H]1CN(C)CC[C@@H]1N2S(=O)(=O)c1ccc([N+](=O)[O-])cc1` stands inactive: -6.5%; under `Cn1c(=O)c2c(ncn2CC(=O)N2CCc3ccccc3C2)n(C)c1=O`, inactive: 3.9%; under `CCC[n+]1cn(/C(C(=S)Nc2cccc(Cl)c2C)=C(/[O-])c2ccc(OC)c(OC)c2)c2ccccc21`, inactive: 11.2%.
Under `Cc1ccc(NC(=O)Cn2c(=S)[nH]c3ccccc32)cc1` stands inactive: -27.4%; under `Cn1c(=O)c2c(ncn2CC(=O)NCc2cccnc2)n(C)c1=O`, inactive: 17%.
Under `Cn1c(=O)[nH]c(=O)c2c1ncn2CCN1CCCCC1` stands inactive: -20.7%; under `CCOC(=O)Nc1cccc([As](=O)(O)O)c1`, inactive: 4.8%; under `NNC(=O)Cn1c(-c2ccccn2)nc2ccccc21`, inactive: -1.6%.
Regarding `COc1cc(NC(=O)[C@H](C)NC(=O)N2CCn3c2nc2ccccc23)cc(OC)c1`, the inhibition was inactive: -12.1%.
In the case of `O=C(Cn1c(CCCO)nc2ccccc21)Nc1ccccc1-c1ccccc1` it was inactive: -27.8%; in that of `C/C(=N\NC(=O)Cn1c(C)nc2ccccc21)c1cccs1`, inactive: 27.4%.
Under `CC(C)(C)NC(=O)Cn1c(SCC(=O)NC2CCCCC2)nc2ccccc21` stands inactive: 1.3%; under `CCCNC(=O)Cn1c(=O)n(C)c2ccccc21`, inactive: 22.6%.
In the case of `CC1CN(Cc2nc3c(c(=O)n(C)c(=O)n3C)n2CCN2CCOCC2)CC(C)O1` (centres undefined) it was inactive: -19.8%; in that of `CCNC(=S)N1CCn2c(nc3ccccc32)C1`, inactive: -5.2%; in that of `Cc1cc(SC(NC=O)C(Cl)(Cl)Cl)ncn1` (centres undefined), inactive: -28.2%.
Regarding `CCc1nc2ccccc2n1CC(=O)N1CCN(S(=O)(=O)c2cccc(C(F)(F)F)c2)CC1`, the inhibition was inactive: -10.7%.
In the case of `COc1ccccc1C(=O)OCCNC(=O)Cn1cnc2c1c(=O)n(C)c(=O)n2C` it was inactive: -2.7%; in that of `Cn1c(=O)n(Cc2ccccc2)c(=O)c2c1nc1n2CCN1Cc1ccco1`, inactive: 13.9%; in that of `Cn1c(=O)c2c(ncn2CC(=O)N/N=C/c2ccc(Br)s2)n(C)c1=O`, inactive: -22.6%.
In the case of `COCCN1CCn2c(nc3cc(NC(=O)c4ccc(OC)cc4)ccc32)C1` it was inactive: -21.2%; in that of `CCC(C)c1ccc2oc(-c3ccc(NC(=O)Cn4cnc5c(=O)n(C)c(=O)n(C)c54)cc3)nc2c1` (centres undefined), inactive: -22.3%; in that of `CCS(=O)(=O)c1nc2ccccc2n1CC(=O)N1CCOCC1`, inactive: -27.5%.
Turning to `CCC(=O)Nc1nnc(/C=C/c2ccccc2)s1`, the inhibition is inactive: -1.5%.
In the case of `O=C(Cn1c(CC(=O)N2CCOCC2)nc2ccccc21)Nc1ccc2c(c1)OC(F)(F)O2` it was inactive: 3.9%; in that of `O=[N+]([O-])c1ccc(Nc2ccc(Oc3ccc([N+](=O)[O-])cc3[N+](=O)[O-])cc2)c([N+](=O)[O-])c1`, inactive: 10.4%; in that of `N=c1n(CCN2CCCCC2)c2ccccc2n1CC(=O)c1cccs1`, inactive: -3.4%.
Under `Cn1c(=O)c2c(ncn2CC(=O)N/N=C/C=C\c2ccccc2[N+](=O)[O-])n(C)c1=O` stands inactive: 19.5%; under `COP1(=S)c2c(C)nn(CCC#N)c2N=C(c2ccc(F)cc2)N1C` (centres undefined), inactive: -82.6%.
Under `Cc1ccc(C)c(S(=O)(=O)N2CCN(C(=O)Cn3cnc4c3c(=O)n(C)c(=O)n4C)CC2)c1` stands inactive: 7%.
As to `O=C(Nc1ccccc1C(F)(F)F)N1CCC(n2c(=O)[nH]c3ccccc32)CC1`, the inhibition was inactive: -27.7%.
In the case of `N#CCC(=O)N/N=C\c1cccc(OC/C=C/c2ccccc2)c1`, the inhibition is inactive: -8.4%.
Under `CCc1cccc(C)c1N(C(=O)Cn1c(COC)nc2ccccc21)C(C)COC` (centres undefined) stands inactive: 0.2%; under `O=[N+]([O-])c1ccc2c(c1)nc1n2CCN(c2ccccc2)C1`, inactive: 41.2%; under `O=C(c1ccccc1)N1CCn2c(nc3ccccc32)C1`, inactive: 1.5%.
Regarding `C=CCn1c(=O)c2c(nc3n2CCN3c2cccc(Cl)c2C)n(C)c1=O`, the inhibition was inactive: 19.5%.
Under `CC(C)NC(=O)Cn1c(SCC(=O)NC2CCCC2)nc2ccccc21` stands inactive: -20.9%; under `COc1ccc2c(c1)C1(Nc3ccccc3-c3nc4ccccc4n31)C(=O)N2C` (centres undefined), inactive: -40%.
Under `CC(C)[C@H](NC(=O)N1CCn2c1nc1ccccc12)C(=O)NC1CC1` stands inactive: -20.2%; under `COc1cccc(NC(=O)[C@H](CC(C)C)NC(=O)N2CCn3c2nc2ccccc23)c1`, inactive: -61.5%.
On to `CCC(C(=O)NC1CCCCC1)n1c(SCc2cccc(C)c2)nc2ccncc21` (centres undefined), for which the inhibition is inactive: 30.9%.
Under `c1ccc(Cn2c(CNc3nc4ccccc4n3CCN3CCOCC3)nc3ccccc32)cc1` stands inactive: 6.1%; under `O=C(Cn1cnc2ccccc21)Nc1ccc(SC(F)F)cc1`, inactive: -14.1%; under `CC(NC(=O)Cn1cnc2c1c(=O)n(C)c(=O)n2C)c1ccccc1` (centres undefined), inactive: 12.3%.
In the case of `O=C(C1CCCN(S(=O)(=O)c2cccnc2)C1)N1CCn2c1nc1ccccc12` (centres undefined) it was inactive: -67.9%.
Under `COc1ccc(/C=N/NC(=O)Cn2cnc3c2c(=O)n(C)c(=O)n3C)c(OC)c1OC` stands inactive: 19.3%; under `O=C(Cn1cnc2ccccc21)Nc1ccc(F)c(F)c1`, inactive: -11.5%; under `COC(=O)c1cccc(NC(=O)Cn2cnc3c2c(=O)n(C)c(=O)n3C)c1`, inactive: 5.2%.
As to `O=C(COc1ccccc1)OC1CN2CCC1CC2` (centres undefined), the inhibition was inactive: -22.4%.
In the case of `O=C(Nc1ccncc1[N+](=O)[O-])c1ccc([N+](=O)[O-])cc1[N+](=O)[O-]` it was inactive: 3.1%; in that of `COc1cccc(CNc2nc3ccccc3n2CCN2CCCCC2)c1OC`, inactive: -5.9%; in that of `O=C(OC1CN2CCC1CC2)c1cccc([N+](=O)[O-])c1` (centres undefined), inactive: -17.7%.
In the case of `CCC(C)[C@H](NC(=O)N1CCn2c1nc1ccccc12)C(=O)NCC1CCCO1` (some centres undefined) it was inactive: -22.2%; in that of `CCCCOc1ccccc1NC(=O)Cn1c(-c2nonc2N)nc2ccccc21`, inactive: -158%.
Under `CCc1cccc(C)c1N(C(=O)Cn1c(=O)[nH]c2ccccc21)C(C)COC` (centres undefined) stands inactive: -32.4%; under `CCN(CC)CCn1c(NC(=O)c2ccc(C(F)(F)F)cc2)nc2ccccc21`, inactive: -42.4%.
As for `Cn1c(=O)c2c(nc(CN3CCOCC3)n2CCN2CCOCC2)n(C)c1=O`, the inhibition is inactive: -37.5%.
`O=S(=O)(Nc1ccc2c(c1)nc1n2CCN(Cc2ccccc2)C1)c1ccc(F)cc1`: the inhibition was inactive: -14.7%.
On to `CC1Cc2ccccc2N1C(=O)Cn1cnc2ccccc21` (centres undefined), for which the inhibition is inactive: -7.9%.
In the case of `CCOC(=O)c1ccc(NC(=O)C(C)(CCl)SC)cc1` (centres undefined) it was inactive: 3%; in that of `O=C(Cn1c(-c2cscn2)nc2ccccc21)Nc1cc(F)ccc1F`, inactive: 27.9%.
In the case of `Cc1ccc2c(c1)C1CN(C)CCC1N2C(=O)COc1ccc(S(=O)(=O)N2CCOCC2)cc1` (centres undefined) it was inactive: -38.4%; in that of `COc1ccc(CCNC(=O)[C@H](CC(C)C)NC(=O)N2CCn3c2nc2ccccc23)cc1OC`, inactive: -19%.
Under `CCC(NC(=O)Cn1cnc2c(=O)n(C)c(=O)n(C)c21)c1ccccc1` (centres undefined) stands inactive: -30.8%.
Turning to `O=C1Cn2c(nc3ccccc32)-c2ccccc2N1`, the inhibition was inactive: -24.7%.
Under `CCN(CC)C(=O)Cn1cnc2c1c(=O)n(C)c(=O)n2C` stands inactive: 9.7%; under `CC(C)N(C(=O)Cn1c(Cl)nc2ccccc21)C(C)C`, inactive: -19.2%; under `CCc1ccc(NC(=O)Cn2c(SC)nc3ccccc32)cc1`, inactive: -16.1%.
Turning to `CCC(C)N(CC(C)C)C(=S)SC(NC(C)=O)C(Cl)(Cl)Cl` (centres undefined), the inhibition was inactive: -50.2%.
Under `CC1CC(C)CN(C(=O)Cn2c(SCC(=O)N3CCc4ccccc4C3)nc3ccccc32)C1` (centres undefined) stands inactive: 5.3%.
In the case of `CCN1C(=O)C2(Nc3ccccc3-c3nc4ccccc4n32)c2cc(OC)ccc21` (centres undefined) it was inactive: 9.8%.

For the origin of these results see PubChem BioAssay AID1778 (Sanford-Burnham Center for Chemical Genomics, 2009).
